Assay results reported in patent EP4711365A1 (Shanghai Hansoh Biomedical Co., Ltd., priority 2023, dated 2024).

Protein sequences, listed by entry. Tags and fused reporters are not part of them. Residues count along the entry.
UniProt Q16552, 24-155 limits assumed: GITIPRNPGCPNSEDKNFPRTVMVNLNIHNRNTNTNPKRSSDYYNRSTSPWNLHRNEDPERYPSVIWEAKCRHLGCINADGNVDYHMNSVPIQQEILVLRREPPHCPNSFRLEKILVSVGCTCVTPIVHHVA

What was measured:
[1] = molecular target: human IL-17RA and IL-17A proteins (Homo sapiens, UniProt Q16552); assay: Competitive ELISA: blocking of binding between human IL-17RA and IL-17A; settings: coated IL-17A, IL-17RA 5 nM
[2] = test system: Groα secretion by HT-29 cells; assay: Inhibition of Groα secretion by HT-29 cells stimulated with IL-17A (ELISA); settings: IL-17A 30 ng/ml, 48 hours, Groα in supernatant
Method: Test example 2 Assay for inhibitory effect of compounds of the present invention against Groα secretion by HT-29 cells
Experimental objective: to measure the inhibitory effect of the compounds against Groα secretion by HT-29 cells, thereby evaluating the inhibition of the compounds on IL-17A pathway.
Experimental method: A cell suspension at 50,000 cells/ml was prepared, and 200 µl of the cell suspension was added to each well of a 96-well plate, i.e., 10,000 cells/well. The plate was cultured overnight. In the 96-well V-bottom plate, 5 mM compound solution was serially diluted 3-fold using DMSO, and the compound from each well was diluted 100-fold using a complete culture medium. IL-17A protein (R&D, #BT7955-025/CF) with a stock concentration of 100 µg/ml was diluted 333.33-fold using a complete culture medium. The compound and IL-17A were mixed at a volume ratio of 1:1 and incubated at 37°C for 30 minutes. […]
The mixture was incubated in a 37°C, 5% CO2 cell culture incubator for 48 hours. The concentration of Groα in the supernatant was determined by ELISA method using Human Groα Valukin Elisa kit (Biotechne, # VAL139), and the absorbance intensity at 450 nm was measured using a microplate reader (PE, EnVision2105). Data were analysed using GraphPad Prism 8.3.0.
Experimental data processing method: Data were analysed using GraphPad Prism 8.3.0. […]

IC50 [1]	IC50 [2]	SMILES
6 nM	3 nM	C[C@H]1CC[C@H]([C@H](NC(=O)C2(F)CC2)C(=O)Nc2ncc([C@@H](CN3CC4CC3CO4)N3CC(F)(F)CNC3=O)s2)CC1 (single isomer, unassigned) [746]
7 nM	3 nM	C[C@H]1CC[C@H]([C@H](NC(=O)C2(F)CC2)C(=O)Nc2ncc([C@@H](CN3CC4CC3CO4)N3CC(F)(F)CNC3=O)s2)CC1 (single isomer, unassigned) [747]
